# Measurements published in PubChem BioAssay AID1007 (NMMLSC, 2008).
# Amino acid sequences for entries named in this document (tags omitted).
# UniProt Q07817, whole entry: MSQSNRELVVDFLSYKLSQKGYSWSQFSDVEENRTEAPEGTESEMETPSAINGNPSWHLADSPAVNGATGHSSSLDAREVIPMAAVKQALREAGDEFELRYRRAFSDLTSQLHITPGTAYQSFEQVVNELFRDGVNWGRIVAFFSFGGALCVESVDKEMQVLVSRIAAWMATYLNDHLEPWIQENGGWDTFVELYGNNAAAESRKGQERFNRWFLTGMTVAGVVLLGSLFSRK
# The list shows a part of the results, in another mix than the full data. Some tests of the compounds listed are not included; inactive here does not mean inactive elsewhere. The source made the active and inactive calls. No stated cut-off is given here; in the data, active means inhibition above about 40%.
# Molecular target: Bcl-2-like protein 1 (Homo sapiens) (UniProt Q07817)
# Assay: inhibitors of Bim-Bcl-XL binding, primary screen, biochemical, multiplexed, bead flow cytometry, human Bcl-XL (AID 1007)
# Conditions: Bim peptide-Bcl-XL binding, fluorescence, at 10 µM, stronger effect = higher value
row,SMILES,inhibition
1,O=C(OC1CN2CCC1CC2)C(CO)(c1ccccc1)c1ccccc1 (centres undefined),inactive: -3%
2,CN(C)c1cccc(C(=O)NCC2(N(C)C)CCCCC2)c1,inactive: -9%
3,COc1cccc(C(=O)NCC2(N3CCCCC3)CCCCC2)c1,inactive: -3%
4,Cc1ccccc1C(=O)NCC1(N2CCCCC2)CCCCC1,inactive: -2%
5,CN(C)C1CCCC1OC(=O)C(O)(c1ccccc1)c1ccccc1 (centres undefined),inactive: -7%
6,CCN1CCCC(OC(=O)C2(O)c3ccccc3C=Cc3ccccc32)C1 (centres undefined),inactive: -7%
7,C=CCN1CCN(CCOC(=O)C(O)(c2ccccc2)c2ccccc2)CC1,inactive: 0%
8,O=C(NCC1(N2CCCCC2)CCCCC1)c1cc([N+](=O)[O-])ccc1Cl,inactive: 3%
9,CC(C)N1C(=O)CC2(CCN(CCOC(=O)C(O)(c3ccccc3)c3ccccc3)CC2)C1=O,inactive: -2%
